{"sequences": {"note": "Sequences of proteins named here, by UniProt entry; tags and fusion partners are left off. A change or cut given only in a name is not applied to a line headed by its entry.", "UniProt P07237": "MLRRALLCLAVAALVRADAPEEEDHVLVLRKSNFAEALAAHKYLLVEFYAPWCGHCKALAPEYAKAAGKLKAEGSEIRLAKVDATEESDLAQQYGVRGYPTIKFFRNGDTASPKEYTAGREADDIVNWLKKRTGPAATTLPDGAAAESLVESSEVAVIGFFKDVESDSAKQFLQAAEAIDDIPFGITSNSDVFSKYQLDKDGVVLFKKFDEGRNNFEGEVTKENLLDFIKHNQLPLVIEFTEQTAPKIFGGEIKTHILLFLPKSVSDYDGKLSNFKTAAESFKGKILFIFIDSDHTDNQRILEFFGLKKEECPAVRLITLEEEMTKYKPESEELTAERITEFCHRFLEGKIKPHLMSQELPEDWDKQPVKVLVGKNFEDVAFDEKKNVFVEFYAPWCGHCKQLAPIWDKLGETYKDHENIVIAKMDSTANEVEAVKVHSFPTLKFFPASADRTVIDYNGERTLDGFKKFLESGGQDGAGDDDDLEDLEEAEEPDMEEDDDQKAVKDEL"}, "source": "ChEMBL document CHEMBL3734722", "about": "“Structural Elucidation of a Small Molecule Inhibitor of Protein Disulfide Isomerase” (ACS Med Chem Lett, 2015)", "target": "Protein disulfide-isomerase (Homo sapiens) (UniProt P07237)", "assay": "Irreversible binding affinity to PDI catalytic domain a (unknown origin) at 3 mM measured after 100 fold dilution for 2 hrs by intrinsic tryptophan fluorescence assay", "note": "Active and inactive are the calls of the source. The rule behind the calls is not given here."}
{"smiles": "O=[As]c1ccccc1", "note": "(stereo unspecified)", "values": [{"measurement": "Activity", "result": "Active"}]}
